ChEMBL document CHEMBL1142871, “Flipped out: structure-guided design of selective pyrazolylpyrrole ERK inhibitors” (J Med Chem, 2007)

The chains behind the UniProt entries cited, without tags or fusion partners.
UniProt P28482, whole entry: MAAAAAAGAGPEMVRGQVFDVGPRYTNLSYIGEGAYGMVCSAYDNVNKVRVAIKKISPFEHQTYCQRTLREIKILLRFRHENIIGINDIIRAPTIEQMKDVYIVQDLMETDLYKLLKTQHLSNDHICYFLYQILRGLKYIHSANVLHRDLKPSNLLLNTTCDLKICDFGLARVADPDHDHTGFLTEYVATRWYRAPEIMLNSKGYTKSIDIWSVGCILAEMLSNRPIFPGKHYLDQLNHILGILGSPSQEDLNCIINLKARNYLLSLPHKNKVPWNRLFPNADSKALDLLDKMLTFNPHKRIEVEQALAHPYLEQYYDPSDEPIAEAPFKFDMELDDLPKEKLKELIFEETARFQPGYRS

Biological target: Mitogen-activated protein kinase 1 (Homo sapiens, UniProt P28482)
Experiment: Inhibition of ERK2 by spectrophotometric coupled-enzyme assay

pKi: 8.70
Structure (SMILES): O=C(N[C@H](CO)c1ccc(F)c(Cl)c1)c1cc(-c2n[nH]cc2-c2cccc(Cl)c2)c[nH]1

pKi: −log10 of the molar value.
